# Patent US20040192738A1, “2-(Butyl-1-sulfonylamino)-N-[1(R)-(6-methoxypyridin-3-yl)propyl] benzamide, its use as a medicament, and pharmaceutical preparations comprising it” (Aventis Pharma Deutschland GmbH, priority 2003, published 2004)
# The chains behind the UniProt entries cited, without tags or fusion partners.
# UniProt P22460, whole entry: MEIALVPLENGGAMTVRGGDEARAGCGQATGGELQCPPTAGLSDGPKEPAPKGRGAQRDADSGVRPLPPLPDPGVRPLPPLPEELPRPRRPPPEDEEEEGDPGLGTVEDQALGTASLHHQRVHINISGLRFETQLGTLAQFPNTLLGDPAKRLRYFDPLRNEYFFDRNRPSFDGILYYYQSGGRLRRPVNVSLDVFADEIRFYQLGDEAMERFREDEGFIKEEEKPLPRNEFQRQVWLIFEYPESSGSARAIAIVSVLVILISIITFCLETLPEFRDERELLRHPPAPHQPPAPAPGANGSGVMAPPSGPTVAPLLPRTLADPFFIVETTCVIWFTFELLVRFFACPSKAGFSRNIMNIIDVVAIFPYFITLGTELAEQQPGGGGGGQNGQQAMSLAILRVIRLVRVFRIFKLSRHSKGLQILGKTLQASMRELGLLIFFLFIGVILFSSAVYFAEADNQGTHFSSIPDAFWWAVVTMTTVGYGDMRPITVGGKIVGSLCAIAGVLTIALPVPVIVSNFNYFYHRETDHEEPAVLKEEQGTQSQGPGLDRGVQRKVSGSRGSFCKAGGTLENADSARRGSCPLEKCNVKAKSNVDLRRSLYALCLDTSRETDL
# Where two headings read alike, the source gives them in different places.
# Target: T1, Kv1.5 channels (Homo sapiens, UniProt P22460)
# T1 construct: expressed in transfected cells; host or cells: Xenopus laevis oocytes injected with in vitro synthesized RNA
# Assay: Kv1.5 currents in Xenopus oocytes, two microelectrode voltage clamp
# Assay type: cell-based, humans
# Method: Kv1.5 channels from humans were expressed in Xenopus oocytes. For this, oocytes were first isolated from Xenopus laevis and defolliculated. RNA encoding Kv1.5 and synthesized in vitro was then injected into these oocytes. After Kv1.5 protein expression for 1-7 days, Kv1.5 currents were measured at the oocytes using the two microelectrode voltage clamp technique. The Kv1.5 channels were in this case as a rule activated using voltage jumps to 0 mV and 40 mV lasting 500 ms. The bath was rinsed using a solution of the following composition: NaCl 96 mM, KCl 2 mM, CaCl2 1.8 mM, MgCl2 1 mM, HEPES 5 mM (titrated to pH 7.4 using NaOH). These experiments were carried out at room temperature. The following were employed for data acquisition and analysis: Geneclamp amplifier (Axon Instruments, Foster City, USA) and MacLab D/A converter and software (ADInstruments, Castle Hill, Australia). The substances according to the invention were tested by adding them to the bath solution in different concentrations. The effects of the substances were calculated as percentage inhibition of the Kv1.5 control current which was obtained when no substance was added to the solution. The data were then extrapolated using the Hill equation in order to determine the inhibitory concentrations IC50 for the respective substances.
# [1] = human Kv1.5 expressed in Xenopus oocytes, room temperature, extrapolated using the Hill equation, read-out: IC50 (inhibition of Kv1.5 control current)
IC50 [1] [nM],Compound,IC50 [nM]
–,"CCCCS(=O)(=O)Nc1ccccc1C(=O)NC(CC)c1ccc(OC)nc1 (racemic) [2-(butyl-1-sulfonylamino)-N-[1-(6-methoxypyridin-3-yl)propyl]benzamide, reference compound]",2400
2400,"CCCCS(=O)(=O)Nc1ccccc1C(=O)N[C@@H](CC)c1ccc(OC)nc1 [S enantiomer, 2-(butyl-1-sulfonylamino)-N-[1(S)-(6-methoxypyridin-3-yl)propyl]benzamide]",–
10000,"CCCCS(=O)(=O)Nc1ccccc1C(=O)N[C@H](CC)c1ccc(OC)nc1 [formula I, 2-(butyl-1-sulfonylamino)-N-[1(R)-(6-methoxypyridin-3-yl)propyl]benzamide]",–
